Consider 1 substance from PMC7015052, “Transferrin plays a central role in coagulation balance by interacting with clotting factors” (Cell Research, 2019).

The target of the test is T1, apo-transferrin (human, UniProt P02787 20-698).
T1 construct: transferrin (serotransferrin), human, iron-free state; Several paragraphs and legends say only 'transferrin' where the text says apo-transferrin for the same panels; rows told of 'transferrin' alone are tied to this molecule; also called Tf; TRF; source: bought: Sigma (purity greater than 98%)
The test can be described thus: SPR; BIAcore 2000; apo-transferrin or holo-transferrin immobilised on a CM5 chip (~2000 RU); serial concentrations of thrombin, FXIIa, fibrinogen, AT, prothrombin or FXII in Tris–HCl buffer (20 mM, pH 7.4) at 10 μL/min.

The term koff denotes a measure of how fast the partners let go of each other. A higher koff goes with fast dissociation. Broadly, the kon is the second-order rate constant of association. Low readings indicate slow association, high ones fast association. “human α-thrombin (from UniProt P00734 364-622) (enzyme)” came in with a koff of 0.0036 s⁻¹ and a kon of 470000 M⁻¹ s⁻¹.
